Data published in patent publication US20210154272A1, “NEUROMODULATING COMPOSITIONS AND RELATED THERAPEUTIC METHODS FOR THE TREATMENT OF CANCER BY MODULATING AN ANTI-CANCER IMMUNE RESPONSE” (Flagship Pioneering Innovations V, Inc., priority 2016, published 2021).

What was measured:
[1] = system: T cells in the lymph node; experiment: Lymph node remodeling by hock injection, flow cytometry of lymph node cells; set-up: species or system C57BL/6J mice; settings: mouse, in vivo
Protocol: C57BL/6J mice were injected in each hock with 50 μL of the immunostimulant CpG ODN (0.1 nmol), 504 dopaminergic agonist quinpirole (0.1 nmol) or with 254 dopaminergic antagonist (Haloperidol −48.5 nmol) followed by 25 μL quinpirole (0.1 nmol). 24 hours after hock injection, brachial lymph nodes (LN) were harvested in culture medium (RPMI+10% FBS). LNs were transferred to 24-well tissue culture plates containing 0.5 mL LN digestion buffer (RPMI, 2% FBS, collagenase D (3.3 mg/mL), and DNAse I (40 ug/mL)). LN capsules were manually opened with two syringe (26G) needles and the LNs were incubated in digestion buffer for 15 minutes. Digested LNs were filtered with a 40 μNA cell strainer and tissues were smashed with the plunger of a 5 mL syringe. Collected cells were washed in culture medium and plated for assays. Total number of viable cells were assessed by staining with viability dye eFluor 780 (eBioscience). Surface markers of various immune cell subsets were analyzed by staining the cells with antibodies for cell identity (CD3, CD4, CD8, CD19), for the inflammatory marker CD69, and the migratory marker CCR7. The cells were then assayed by flow cytometry.

[2] = system: primary human T cells; experiment: T cell activation and cytokine secretion assay (LEGENDplex); type: cell-based
Protocol: Peripheral blood mononuclear cells (PBMCs) were isolated from whole blood by ficoll density separation. Briefly, blood was diluted 1:2 with 0.5 mM EDTA solution in PBS, loaded onto a Ficoll-filled Leucosep tube (Greiner Bio-One), and centrifuged for 20 minutes at 1000×g. After centrifugation, the leukocyte/PBMC layer on top of the separation medium was collected and sequentially washed three times with 0.5 mM EDTA solution in PBS. T cells were isolated from PBMCs using magnetic bead-based separation following vendor specification, e.g., Biolegend MojoSort Human CD4/CD8 Naïve T Cell Isolation Kit protocol. In brief, the PBMCs were labeled with biotinylated antibodies against cell surface receptors for cells not in the population of interest. The labeled cells are then captured by streptavidin-coated magnetic beads and removed by magnetic incubation. The uncaptured cells that flow through the magnetic separation are predominantly comprised of the population of interest, in this instance CD3+ T cells. T cells were stained with a 5 μM solution of Tag-it Violet™ dye (BioLegend) for 20 minutes protected from light. […] Supernatants were collected at 24, 48, and 72 hrs and cytokine secretion was analyzed by flow cytometry using a LEGENDplex assay (BioLegend). […] The beads were then stained and the captured cytokine composition assessed by flow cytometry.

SMILES: CCCN1CCC[C@@H]2Cc3n[nH]cc3C[C@H]21 [quinpirole]
- number of migratory phenotype CCR7+ T cells in the lymph node [1]: increased
- production of the pro-survival cytokine IL-2 [2]: increase
